# Most compounds without a hit are left out; they make up all but 1.7% or so of the library.
# CAL PDZ FP-1 = CAL PDZ (human) peptide binding inhibition | Q9HD26 | purified CAL PDZ, TMR-peptide fluorescence polarization, 1 h | inhibition, % at 24.9 µM | actives 0.92% (n = 300,000) | AID 602252;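 active = mean inhibition of at least 30% with at least half of replicates also reaching 30%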
# dFosB activator = activators of mouse delta FosB homodimer. activation, % at 25 µM. purified delta FosB, TAMRA-CDK5 oligo fluorescence polarization; percent of positive-control signal above neutral wells. actives 0.99% (n = 340,000);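 active = mean activation above about 17%, with every replicate also reaching it, limit read from the data, passing the limit was not always enough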
# CDK5 p35 inh = inhibitors of human CDK5/p35 kinase; Q00535+Q15078; Recombinant CDK5/p35, ADP-Glo luminescence, 60 min; inhibition, % at 10 µM; actives 0.01% (n = 330,000);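 active = highest replicate inhibition of at least 50% and at least 75% of replicates reaching 50%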
# CAL PDZ FP-2 = blocks peptide binding to human CAL PDZ domain. Q9HD26. purified CAL PDZ, TMR-peptide fluorescence polarization, 1 h. inhibition, % at 20 µM. actives 0.02% (n = 330,000);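 active = highest replicate inhibition of at least 40%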
#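 Material: tagged CAL PDZ domain; buffer or medium: 25 mM sodium phosphate pH 7.4, 150 mM NaCl, TCEP, IgG, Thesit; compound dosing: single point, 20 µM; schedule: 1 h incubation at room temperature before polarization reading; measured by: FP readout, S and P plane fluorescence; read-out basis: percent inhibition from loss of millipolarization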
# DYRK1A inh = inhibitors of rat Dyrk1A kinase; AID 504441; ADP-Glo luminescence, NFATc1 peptide; actives 0.43% (n = 310,000); inhibition, % at 12.5 µM; in the data active = inhibition above about 50%
# UUG fidelity = alters start codon recognition fidelity in yeast. S. cerevisiae UUG-firefly luciferase reporter, luminescence/redox ratio. 350,000 tested, 0.13% active. activity score, % at 18.7 µM. AID 602363;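 active means replicate mean at a twofold rise or more, about +100% in these data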;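 further: firefly luciferase made from a UUG start codon reports start codon fidelity; reporter light over untreated wells divided by growth signal over untreated wells; some hits fall short of that in this replicate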
# Numbers stand for hits; – = inactive; · = not tested or not shown; + = active, no number.
SMILES,CAL PDZ FP-1,dFosB activator,CDK5 p35 inh,CAL PDZ FP-2,DYRK1A inh,UUG fidelity
Nc1nc(Nc2ccccc2)nc(NC2CCCCC2)c1[N+](=O)[O-],–,73,–,–,–,–
Nc1nc(Nc2ccccc2)nc(NCc2ccccc2)c1[N+](=O)[O-],–,34,–,–,–,·
Cc1ccc(Nc2nc(N)c([N+](=O)[O-])c(N3CCC(C)CC3)n2)cc1C,–,–,–,–,–,–
Cc1ccc(CNc2nc(N)c([N+](=O)[O-])c(NCCO)n2)cc1,62,–,–,–,·,–
Cc1ccc(S(=O)(=O)NCC[C@H]2CC[C@H](NC(=O)Nc3cccc(F)c3)[C@H](CO)O2)cc1,·,·,·,·,·,–
COCCOC(=O)N1C(=O)[C@@]2(c3ccccc31)[C@H](c1ccccc1OCCO)N1[C@H](c3ccccc3)[C@H](c3ccccc3)OC(=O)[C@H]1[C@@H]2C(=O)NC[C@H](O)c1ccccc1,·,·,·,·,·,–
COc1cccc(NC(=O)N2[C@H](CO)[C@H](c3ccccc3)[C@@H]2CNC(C)C)c1,·,·,·,·,·,–
CN1CCN(C(=O)C[C@H]2CC[C@@H](NC(=O)Nc3ccccc3F)[C@@H](CO)O2)CC1,·,·,·,·,·,–
Cc1ccc(CNc2nc(N)c([N+](=O)[O-])c(NCc3ccccc3)n2)cc1,–,–,–,–,–,–
Cc1cccc(Nc2nc(N)c([N+](=O)[O-])c(NCc3ccccc3)n2)c1,·,39,–,–,–,–
Nc1ncccc1OCc1cccc(C(F)(F)F)c1,–,–,–,–,·,·
Nc1nc(N)c(-c2cccc(C(F)(F)F)c2)c(Cc2cccc(C(F)(F)F)c2)n1,–,16,–,–,–,·
CC(=O)Nc1cccc(NC(=O)CCNC(=O)c2ccc(Cl)cc2)c1,–,–,–,–,–,–
CNC(=O)c1cccc(NC(=O)CCCNC(=O)c2ccc(Cl)cc2)c1,66,–,–,–,–,–
COc1ccc(NC(=O)N(C)C[C@@H]2Oc3c(NS(=O)(=O)c4ccc(Cl)cc4)cccc3C(=O)N([C@@H](C)CO)C[C@H]2C)cc1,·,·,·,·,·,–
COc1ccc2nc(C)cc(N/N=C/c3cccc(OC)c3O)c2c1,–,–,–,–,·,–
COc1ccc(/C=N/Nc2cc(C)nc3ccc(Br)cc23)cc1,–,62,–,–,–,–
C[C@@H]1CN([C@@H](C)CO)S(=O)(=O)c2ccc(C#Cc3ccc(F)cc3)cc2O[C@@H]1CN(C)C(=O)c1ccccn1,·,·,·,·,·,–
Cc1noc(C)c1NC(=O)N(C)C[C@H]1Oc2ccc(NC(=O)NC3CCCCC3)cc2C(=O)N([C@@H](C)CO)C[C@H]1C,·,·,·,·,·,–
CC(C(=O)NCC1CCCO1)N1C(=O)C2C3CC(C(Br)C3Br)C2C1=O (configuration not stated),109,–,–,–,·,–
CN(C(=O)COc1ccc(Cl)cc1Br)C1CCCCC1,71,–,–,–,–,–
COc1cc(OC)cc(-c2c(C#Cc3ccsc3)c3cc(-c4ccc5[nH]ccc5c4)ccc3n2C)c1,–,23,–,–,–,–
O=C(NNC(=O)c1ccc(Cl)c(Cl)c1)c1cccnc1,–,–,–,92,–,–
Oc1cc(O)cc(/C=C/c2ccc(O)c(O)c2)c1,–,–,–,–,69,–
O=C(O)c1cncc(C#Cc2ccccc2)c1,–,–,–,–,–,·
SMILES,CAL PDZ FP-1,dFosB activator,CDK5 p35 inh,CAL PDZ FP-2,DYRK1A inh,UUG fidelity
O=C(NC(=S)Nc1ccccc1)c1cncc(C#Cc2ccccc2)c1,45,–,–,–,–,·
Brc1ccc(-n2cnc(-c3ccccc3)c2)cc1,51,–,–,–,–,–
NNc1nc(-c2ccccc2)cc(-c2ccc(Br)cc2)n1,–,–,–,–,–,–
C[C@H](CO)N1C[C@H](C)[C@H](CN(C)C(=O)c2ccccc2)OCCCC[C@H](C)Oc2ccc(NC(=O)C3CCCCC3)cc2C1=O,·,·,·,·,·,–
NCC[C@@H]1CC[C@@H](NC(=O)C2CCCCC2)[C@@H](CO)O1,·,·,·,·,·,–
COc1ccc(Br)cc1CN(C)C(=O)C1=CC=CN2CCS(=O)(=O)N=C12,–,–,–,–,–,–
COc1ccc(Br)cc1CN(C)C(=O)c1ccncc1,+,–,–,–,–,–
C[C@H](CO)N1C[C@H](C)[C@@H](CN(C)C(=O)c2ccc(F)cc2)Oc2ncc(/C=C/c3ccccc3)cc2C1=O,·,·,·,·,·,–

# Screening data: PubChem, Broad Institute
